ChEMBL document CHEMBL3639213, “2,5-disubstituted piperidine orexin receptor antagonists” (2014)

By UniProt entry, the sequences of proteins in these tests, tags left out.
UniProt P56718, whole entry: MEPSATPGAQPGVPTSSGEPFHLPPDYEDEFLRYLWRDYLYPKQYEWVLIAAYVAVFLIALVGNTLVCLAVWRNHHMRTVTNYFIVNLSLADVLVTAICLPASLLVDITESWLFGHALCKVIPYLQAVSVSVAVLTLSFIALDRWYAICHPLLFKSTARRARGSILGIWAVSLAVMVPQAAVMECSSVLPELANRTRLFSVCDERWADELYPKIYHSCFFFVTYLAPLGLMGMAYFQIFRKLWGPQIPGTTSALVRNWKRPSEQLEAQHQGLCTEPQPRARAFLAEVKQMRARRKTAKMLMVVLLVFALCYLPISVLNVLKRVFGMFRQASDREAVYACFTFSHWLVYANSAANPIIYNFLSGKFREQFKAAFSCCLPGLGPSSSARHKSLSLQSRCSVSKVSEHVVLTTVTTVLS

Molecular target: Orexin/Hypocretin receptor type 1 (Rattus norvegicus, UniProt P56718)
Experiment: Radioligand Binding Assay: Compound potency can be assessed by a radioligand binding assay (described in Bergman et. al. Bioorg. Med. Chem. Lett. 2008, 18, 1425-1430) in which the inhibition constant (Ki) is determined in membranes prepared from CHO cells expressing either the orexin-1 (OX1) or orexin-2 (OX2) receptor.
Type: cell membranes

- Ki: 3.35 nM
Structure (SMILES): C[C@@H]1CC[C@@H](Oc2nccc3ccccc23)CN1C(=O)c1ccccc1-n1nccn1
